According to paper PMC11504489, “Potent Biological Activity of Fluorinated Derivatives of 2-Deoxy-D-Glucose in a Glioblastoma Model” (Biomedicines, 2024):

Molecular target: T1, hexokinase II (HKII) (Homo sapiens, UniProt P52789)
T1 construct: gene HK2; recombinant HKII expressed in E. coli, first 16 aa from the N-terminal removed
T1 sequence (P52789 17-917): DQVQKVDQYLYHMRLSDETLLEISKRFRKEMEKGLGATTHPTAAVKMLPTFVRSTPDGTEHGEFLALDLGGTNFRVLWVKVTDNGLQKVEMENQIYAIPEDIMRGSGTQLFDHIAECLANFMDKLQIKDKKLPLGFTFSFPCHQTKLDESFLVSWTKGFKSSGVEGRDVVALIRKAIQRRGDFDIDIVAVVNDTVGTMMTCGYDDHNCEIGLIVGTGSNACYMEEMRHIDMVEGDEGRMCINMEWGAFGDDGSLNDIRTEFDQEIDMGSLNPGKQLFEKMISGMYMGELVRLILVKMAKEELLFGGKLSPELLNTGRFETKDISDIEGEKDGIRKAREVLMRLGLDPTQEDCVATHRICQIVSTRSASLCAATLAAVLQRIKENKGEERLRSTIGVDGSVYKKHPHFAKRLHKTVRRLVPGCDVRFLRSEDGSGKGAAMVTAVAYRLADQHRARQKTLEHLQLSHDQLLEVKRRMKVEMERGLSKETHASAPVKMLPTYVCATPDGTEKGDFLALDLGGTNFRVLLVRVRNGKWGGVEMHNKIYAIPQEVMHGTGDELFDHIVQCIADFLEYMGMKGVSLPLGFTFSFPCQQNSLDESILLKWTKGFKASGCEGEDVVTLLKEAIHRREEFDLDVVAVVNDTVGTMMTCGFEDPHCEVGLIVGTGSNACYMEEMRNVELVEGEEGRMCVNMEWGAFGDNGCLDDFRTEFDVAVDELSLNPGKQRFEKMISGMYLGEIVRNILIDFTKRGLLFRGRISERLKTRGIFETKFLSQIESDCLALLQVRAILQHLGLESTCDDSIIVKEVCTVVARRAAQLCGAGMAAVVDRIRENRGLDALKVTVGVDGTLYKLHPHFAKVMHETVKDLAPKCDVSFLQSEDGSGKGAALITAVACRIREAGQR
Test: […] NMR CPMG transverse relaxation titration
Type: binding

## OC[C@H]1OC(O)[C@H](F)[C@@H](O)[C@@H]1O (mixture of isomers) [2-FG, 2-deoxy-2-fluoro-D-glucopyranose]
  Kd: 760 ± 190 µM
